# This is a selection; strong and weak results do not stand in their true shares. Calls of active or inactive are those of the source.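 How the source made its calls: active means tissue-nonspecific alkaline phosphatase inhibition above about 50% at 20 µM in the single-dose screen (limit read from the data); inactive means the rest.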
# Amino acid sequences for entries named in this document (tags omitted).
# UniProt P05186, whole entry: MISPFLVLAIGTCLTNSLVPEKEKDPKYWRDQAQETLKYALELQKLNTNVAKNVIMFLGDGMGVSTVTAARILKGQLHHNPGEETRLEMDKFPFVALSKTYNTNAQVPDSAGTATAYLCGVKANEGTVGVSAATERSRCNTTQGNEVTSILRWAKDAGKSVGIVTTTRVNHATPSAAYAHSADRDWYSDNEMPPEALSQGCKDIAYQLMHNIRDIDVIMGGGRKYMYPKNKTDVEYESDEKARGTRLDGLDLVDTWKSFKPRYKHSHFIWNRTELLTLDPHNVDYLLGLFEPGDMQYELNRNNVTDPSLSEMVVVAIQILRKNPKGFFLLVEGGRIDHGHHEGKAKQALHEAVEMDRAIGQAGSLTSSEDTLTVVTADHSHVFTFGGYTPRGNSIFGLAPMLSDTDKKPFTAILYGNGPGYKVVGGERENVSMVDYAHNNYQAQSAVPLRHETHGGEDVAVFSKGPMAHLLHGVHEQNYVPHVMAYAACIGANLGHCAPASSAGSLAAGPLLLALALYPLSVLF
# Target: Alkaline phosphatase, tissue-nonspecific isozyme (Homo sapiens) (UniProt P05186)
# Experiment: human TNAP enzyme inhibitors, primary screen, biochemical, luminescent, no phosphate acceptor, uHTS (AID 1012);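 further: 0% = DMSO negative control and 100% = EDTA positive control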
# Conditions: purified TNAP, CDP-star luminescence, 30 min; at 20 µM; stronger effect = higher value
row,Structure (SMILES),inhibition
1,Cc1nc2ccc3ccccc3c2o1.O=[N+]([O-])c1cc([N+](=O)[O-])c(O)c([N+](=O)[O-])c1,inactive: -6.7%
2,CP(=O)(OCCOc1ccccc1)OCCOc1ccccc1,inactive: -7.3%
3,CP(=O)(Nc1ccc(Cl)cc1Cl)Oc1ccccc1 (centres undefined),inactive: -9.8%
4,Cc1cc(C)cc(OP(C)(=O)Nc2cccc(C(F)(F)F)c2)c1 (centres undefined),inactive: -1.1%
5,COc1ccc(OP(C)(=O)Nc2ccccc2Br)cc1 (centres undefined),inactive: -5.7%
6,COc1ccccc1OP(C)(=O)Nc1ccc(C)c(C)c1 (centres undefined),inactive: -7.7%
7,O=[N+]([O-])c1cc([N+](=O)[O-])c(Nc2ccccn2)c([N+](=O)[O-])c1,inactive: 31.6%
8,Cc1c(NP(C)(=O)Oc2ccc(C(C)C)cc2)c(=O)n(-c2ccccc2)n1C (centres undefined),inactive: 0.9%
9,CCc1ccc(OP(C)(=O)O)cc1,inactive: -10.1%
10,CP(=O)(Nc1ccccn1)Oc1ccccc1 (centres undefined),inactive: -9.5%
11,COc1ccccc1OP(C)(=O)Nc1ccc(C)cc1C (centres undefined),inactive: -6.6%
12,CN(C)CCOC(=O)C(O)(c1ccccc1)C1CCCC1 (centres undefined),inactive: 1.7%
13,COc1ccc(OP(C)(=O)Nc2ccccn2)cc1 (centres undefined),inactive: -17.2%
14,CP(=O)(Nc1ccc(Cl)cc1)Oc1ccc(F)cc1 (centres undefined),inactive: -9.6%
15,CC(C)(C)c1ccc(OP(C)(=O)O)cc1,inactive: 1%
16,COc1ccccc1OP(C)(=O)Nc1ccccc1Br (centres undefined),inactive: -9.2%
17,CN(C)C(=O)c1c([N+](=O)[O-])cc([N+](=O)[O-])cc1[N+](=O)[O-],inactive: -6.7%
18,CCN(CC)CC(O)COC(=O)C(O)(c1ccccc1)C1CCCCC1 (centres undefined),inactive: -9.4%
19,COc1ccc(OP(C)(=O)Nc2ccc(Br)cc2)cc1 (centres undefined),inactive: -9.8%
20,CP(=O)(Oc1ccccc1)N1CCOC1=O (centres undefined),inactive: -11%
21,CCc1ccc(OP(C)(=O)Nc2cccnc2)cc1 (centres undefined),inactive: -7.3%
22,COc1ccccc1OP(C)(=O)Nc1c(C)n(C)n(-c2ccccc2)c1=O (centres undefined),inactive: -13.6%
23,CP(=O)(OC12CC3CC(CC(C3)C1)C2)OC12CC3CC(CC(C3)C1)C2,inactive: -2.5%

row,Structure (SMILES),inhibition
1,CCOC(=O)c1ccc(NP(C)(=O)Oc2ccc(Cl)cc2)cc1 (centres undefined),inactive: -10.7%
2,O=[N+]([O-])c1cc([N+](=O)[O-])c(NCC2CCS(=O)(=O)C2)c([N+](=O)[O-])c1 (centres undefined),inactive: -2.4%
3,COc1ccc(OP(C)(=O)Nc2cccc(Br)c2)cc1 (centres undefined),inactive: -12.3%
4,COc1ccc(NP(C)(=O)Oc2ccccc2OC)cc1 (centres undefined),inactive: -8.7%
5,CN(C)CCOC(=O)C(O)(c1ccccc1)C1CCCCC1 (centres undefined),inactive: 3.4%
6,CP(=O)(Nc1ccc2c(c1)OCCO2)Oc1ccccc1 (centres undefined),inactive: -8%
7,Cc1ccccc1NP(C)(=O)Nc1ccccc1C,inactive: -5%
8,CCOP(C)(=S)SCC(=O)NC(C)(CC)C(=O)O (centres undefined),inactive: -4.4%
9,O=C(OCCN1CCN(CCOCc2ccccc2)CC1)C(O)(c1ccccc1)c1ccccc1,inactive: -8.2%
10,CC(C)c1ccc(OP(C)(=O)Nc2ccc(SC(F)(F)F)cc2)cc1 (centres undefined),inactive: -10.9%
11,CP(=O)(Nc1ccccc1F)Oc1ccccc1 (centres undefined),inactive: -8.1%
12,CCN(CC)CCCOC(=O)C(O)(c1ccccc1)C1CCCCC1 (centres undefined),inactive: -4%
13,CP(=O)(Nc1ccccc1)Oc1ccc(F)cc1 (centres undefined),inactive: -9.5%
14,COc1ccc(OP(C)(=O)Nc2ccc(SC(F)(F)F)cc2)cc1 (centres undefined),inactive: -2.8%
15,CCOC(=O)c1ccc(NP(C)(=O)Oc2ccc(F)cc2)cc1 (centres undefined),inactive: -6.4%
16,CC1=NCCc2c1[nH]c1ccccc21.O=[N+]([O-])c1cc([N+](=O)[O-])c(O)c([N+](=O)[O-])c1,inactive: -10.4%
17,CP(=O)(Nc1cccc(Br)c1)Oc1ccccc1 (centres undefined),inactive: -10.8%
18,Cc1cc(C)cc(OP(C)(=O)Nc2ccccn2)c1 (centres undefined),inactive: -10.8%
19,Cc1ccc(C)c(NP(C)(=O)Oc2ccccc2)c1 (centres undefined),inactive: -7.8%
20,Cc1cc(C)cc(OP(C)(=O)Nc2ccc(C)cc2C)c1 (centres undefined),inactive: -8.5%
21,CCOC(=O)c1ccc(NP(C)(=O)Oc2cc(C)cc(C)c2)cc1 (centres undefined),inactive: 2.5%
22,Cc1nc2ccc3ccccc3c2s1.O=[N+]([O-])c1cc([N+](=O)[O-])c(O)c([N+](=O)[O-])c1,inactive: -4%
23,O=[N+]([O-])c1cc([N+](=O)[O-])c(-n2nnc3ccccc32)c([N+](=O)[O-])c1,inactive: 10.9%

row,Structure (SMILES),inhibition
1,CN1CCCCC1COC(=O)C1(O)c2ccccc2CCc2ccccc21 (centres undefined),inactive: -0.7%
2,COc1ccccc1OP(C)(=O)Nc1c(C)cccc1C (centres undefined),inactive: 4.7%
3,CP(=O)(Nc1ccc(SC(F)(F)F)cc1)Oc1ccccc1 (centres undefined),inactive: -3.7%
4,CCCOc1ccc(NP(C)(=O)Oc2ccc(Cl)cc2)cc1 (centres undefined),inactive: -7.1%
5,CP(=S)(Nn1cnnc1)Oc1ccccc1 (centres undefined),inactive: -11%
6,COc1ccccc1OP(C)(=O)Nc1ccccc1 (centres undefined),inactive: -12.7%
7,CP(=O)(Nc1ccccc1Br)Oc1ccccc1 (centres undefined),inactive: -7.1%
8,CCOP(C)(=S)SCC(=O)NC(C)C(=O)O (centres undefined),inactive: -7.7%
9,CCOC(=O)c1ccc(NP(C)(=O)Oc2ccc(OC)cc2)cc1 (centres undefined),inactive: -6.3%
10,CP(=O)(Nc1ccccn1)Oc1ccc(Cl)cc1 (centres undefined),inactive: -7%
11,Cc1cccc(C)c1OP(C)(=O)Nc1ccc(SC(F)(F)F)cc1 (centres undefined),inactive: 1.2%
12,CP(=O)(Oc1ccccc1)OC(c1ccccc1)C(F)(F)F (centres undefined),inactive: -12.3%
13,CP(=O)(NC(=O)Nc1ccccc1)Oc1ccccc1 (centres undefined),inactive: -13.7%
14,Cc1cc(C)cc(OP(C)(=O)Nc2ccc(SC(F)(F)F)cc2)c1 (centres undefined),inactive: -10.4%
15,CCN(CC)CCCOC(=O)C(O)(c1ccccc1)c1ccccc1,inactive: -12.6%
16,CCOC(=O)c1ccc(NP(C)(=O)Oc2ccccc2)cc1 (centres undefined),inactive: -5.8%
17,COc1ccccc1OP(C)(=O)Nc1ccc(C)cc1 (centres undefined),inactive: -6.2%
18,COc1ccccc1OP(C)(=O)Nc1cc(Cl)ccc1C (centres undefined),inactive: -5.2%
19,COc1ccc(OP(C)(=O)Nc2cccc(F)c2)cc1 (centres undefined),inactive: -8.6%
20,Cc1cc(C)cc(OP(C)(N)=O)c1 (centres undefined),inactive: -16%
21,CC(C)(C)c1ccc(OP(C)(=O)Nc2ccc(SC(F)(F)F)cc2)cc1 (centres undefined),inactive: 18.5%
22,Cc1cccc(C)c1OP(C)(N)=O (centres undefined),inactive: -15.4%
23,O=[N+]([O-])c1ccc2c(c1)C=Nc1ccccc1O2,inactive: -2.4%

# — PubChem BioAssay AID1012 (Sanford-Burnham Center for Chemical Genomics, 2008)
